Reference: patent publication US12077495B2 (priority 2018, dated 2024)
pEC50: −log10 of the molar value.

Test system: proton-coupled transporters (MCTs) endogenously present in tsA201 cells
Assay: MCT-mediated uptake in tsA201 cells (BCECF pH-sensitive dye)
Format: cell-based
Conditions: 2 min, read-out: EC50, concentration-dependent decrease in intracellular pH

Question: With `O=C(O)/C=C1\CCCc2cc(-c3ccccc3)ccc2C1O` (stereo not shown) [Compound 2, (E)-2-(5-hydroxy-2-phenyl-5,7,8,9-tetrahydro-6H-benzo[7]annulen-6-ylidene)acetic acid] as the compound, how does the pEC50 read?
Answer: The pEC50 was 2.80.
